Test results: EP4821925A2, “MRGPRX2 ANTAGONIST AND USE THEREOF” (dated 2026)

Chains of the proteins cited; added tags and fusions are not shown.
UniProt Q96LB1, whole entry: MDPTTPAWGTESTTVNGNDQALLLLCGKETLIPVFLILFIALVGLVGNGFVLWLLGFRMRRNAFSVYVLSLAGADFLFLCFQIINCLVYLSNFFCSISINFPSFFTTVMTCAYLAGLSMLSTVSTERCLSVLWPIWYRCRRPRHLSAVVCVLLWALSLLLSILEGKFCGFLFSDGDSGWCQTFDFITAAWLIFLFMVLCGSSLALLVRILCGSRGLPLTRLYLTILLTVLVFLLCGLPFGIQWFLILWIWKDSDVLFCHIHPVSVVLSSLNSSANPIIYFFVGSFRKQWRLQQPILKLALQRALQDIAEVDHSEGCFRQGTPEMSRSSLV

Columns and labels:
HepG2 cells = experiment: Hepatotoxicity assay (HepG2 cell viability, CellTiter-Glo); settings: inhibition of viability of HepG2 cells, 72 h
Protocol: The hepatotoxicity assay for the compounds was performed using HepG2 (ATCC, HB-8065) cells. Cell viability was determined using a CellTiter-Glo Luminescent Cell Viability Assay kit (Promega, G7573), and the toxicity of the compounds was characterized by the inhibition of viability of HepG2 cells. HepG2 cells in the logarithmic growth phase were collected, the concentration of the cell suspension was adjusted, and then the cells were plated on a 96-well cell culture plate at 5000 cells/well. The cells were incubated in a cell incubator with 5% CO2 at 37 °C overnight, and the next day, medium change was performed, and compound solutions at different concentrations were added. Meanwhile, a negative control group (cells + DMSO) and a blank control group (medium + DMSO) were set, and the cells were incubated in the cell incubator with 5% CO2 at 37 °C for 72 h. After the treatment was completed, procedures were performed according to the instructions of the kit, and luminescence signal values in different wells were measured using an EnVision plate reader (2104). The inhibition of the viability of HepG2 cells by the compounds at different concentrations was calculated according to the following formula. The concentration of the compound was plotted on the X-axis, and the inhibition rate was plotted on the Y-axis. The toxic effect (IC50 value) of the compound on HepG2 was calculated using GraphPad Prism 8.0 software. Inhibition rate (%) = (1−(signal value of each compound group−signal value of blank control group)/(signal value of negative control group−signal value of blank control group)) × 100% [formula] Table 3: Assay results of toxicity on HepG2

[1] = Pharmacokinetic assay in rats; settings: oral intragastric administration, 10 mg/kg, plasma
Protocol: (§1) Pharmacokinetic assay in rats was performed, and the rats used were male SD rats weighing 180-240 g and fasted overnight. Three rats were used, and oral intragastric administration was performed at a dose of 10 mg/kg. Blood was collected before administration and at 15 min, 30 min and 1 h, 2 h, 4 h, 8 h, and 24 h after administration. The blood samples were centrifuged at 6800 g at 2-8 °C for 6 min, and plasma was collected and stored at -80 °C. The plasma at each time point was taken, and 3-5 times its amount of an acetonitrile solution containing an internal standard was added for mixing. The mixture was vortexed for 1 min and then centrifuged at 13000 rpm at 4 °C for 10 min. The supernatant was taken, and 3 times its amount of water was added for mixing. An appropriate amount of the resulting mixture was taken for LC-MS/MS analysis. The major pharmacokinetic parameters were analyzed using a non-compartmental model in the WinNonlin 7.0 software. Table 5. Results of pharmacokinetic assay in rats

human MRGPRX2 = human MRGPRX2 (Homo sapiens, UniProt Q96LB1); experiment: MRGPRX2 in vitro calcium flux assay; settings: CHO stably-transfected cell line highly expressing human MRGPRX2; agonist C48/80; FLIPR fluorescence
Protocol: The antagonistic effect of the compounds on MRGPRX2 was determined in a CHO stably-transfected cell line that highly expresses human MRGPRX2. 18 h before the assay, cells were seeded in a black-wall transparent base plate containing DMEM/F12 (1:1) medium at a specific density and incubated at 37 °C with 5% CO2 for 18 h. Then, an appropriate amount of dye solution was added to each well, and the cells were incubated for another 30 min in the incubator at 37 °C in the dark. The cells were further incubated for 10 min at room temperature in the dark. Subsequently, the compounds at different final concentrations were added to each well and equilibrated for 20 min. Finally, a certain amount of C48/80 solution was added to the cells, and fluorescence signals were measured using FLIPR. The concentration of the compound was plotted on the X-axis, and the fluorescence signal value was plotted on the Y-axis. The antagonistic effect (IC50 value) of the compound was calculated using GraphPad Prism 8.0 software. A denotes an IC50 value ≤ 100 nM, B denotes 100 nM < IC50 value ≤ 500 nM, and C denotes an IC50 value greater than 500 nM.

[2] = Pharmacokinetic assay in mice; settings: oral intragastric administration, 10 mg/kg, plasma
Protocol: as §1, with “mice” for “rats”, “ICR mice” for “SD rats”, “20-25” for “180-240”, “4.” for “5.”

[3] = Human liver microsome stability assay; settings: human liver microsomes, NADPH, 37 °C
Protocol: The human liver microsome stability assay was performed by co-incubating the compounds with human liver microsomes in vitro. Test compounds were first prepared as 10 mM stock solutions in DMSO solvent, followed by dilution of the compounds to 0.5 mM using acetonitrile. Human liver microsomes (Corning) were diluted with PBS to form a microsome/buffer solution, and 0.5 mM compound was diluted with this solution to form a working solution with a compound concentration of 1.5 µM and a human liver microsome concentration of 0.75 mg/mL. A deep-well plate was used, and 30 µL of the working solution was added to each well. Subsequently, 15 µL of pre-warmed 6 mM NADPH solution was added to start the reaction, and the plate was incubated at 37 °C. Reactions were terminated by adding 135 µL of acetonitrile to the corresponding wells at 0, 5, 15, 30, and 45 min of incubation. After the reaction was terminated with acetonitrile at the last 45 min time point, the deep-well plate was vortexed for 10 min (600 rpm/min) and then centrifuged for 15 min. The supernatant was collected after centrifugation, and purified water was added at a ratio of 1:1 for LC-MS/MS analysis to obtain the ratio of peak area of compound to peak area of internal standard at each time point. The peak area ratios of the compounds at 5, 15, 30, and 45 min were compared with the peak area ratio thereof at 0 min, and the remaining percentage of compounds at each time point was calculated. T1/2 was calculated using Graphpad 5 software. Table 8. Human liver microsome stability data for the compounds

| AUC0-t [1] [ng·h/mL] | Cmax [1] [ng/mL] | pIC50 (human MRGPRX2) | AUC0-t [2] [ng·h/mL] | Cmax [2] [ng/mL] | Half-life (T1/2, min) [3] [min] | SMILES | pIC50 (HepG2 cells) |
| --- | --- | --- | --- | --- | --- | --- | --- |
| 76414 | 8730 | > 7.00 | 31492 | 4140 | 482 | Cn1nc(N[C@H]2CC[C@@H](NC(=O)c3cn(CC(F)(F)F)nc3Cl)CC2)cc(C(F)(F)F)c1=O | < 4.00 |
| 36630 | 3176 | > 7.00 | 21770 | 2642 | 370 | COc1ccc(C(=O)NC2CCC(Nc3cc(C(F)(F)F)c(=O)n(C)n3)CC2)cc1 (centres unmarked) | < 4.00 |

pIC50: −log10 of the molar value.
